Source: ChEMBL document CHEMBL5244260, “Aldose reductase and protein tyrosine phosphatase 1B inhibitors as a promising therapeutic approach for diabetes mellitus” (Eur J Med Chem, 2020)

Species on record: Homo sapiens
Assay: Selectivity index, ratio of IC50 for ALR2 (unknown origin) to IC50 for ALR1 (unknown origin)

Compound: O=C1NC(=O)C2(CCCCC2)N1S(=O)(=O)c1ccc(Cl)s1
- Ratio IC50: 127
